Experimental data reported in article PMC3646547 (Nature communications, 2012).

T1: MHF1^1-107 (truncated MHF1 with the C-terminal 31 residues deleted) (human, UniProt Q8N2Z9 1-107)
T1 sequence (looked up): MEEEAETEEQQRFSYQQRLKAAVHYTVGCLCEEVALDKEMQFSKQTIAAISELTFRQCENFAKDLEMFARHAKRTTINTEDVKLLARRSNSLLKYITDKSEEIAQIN

T2: MHF1^1-114 (SeMet derivative) (human, UniProt Q8N2Z9 1-114, selenomethionine (SeMet-derivative protein))
T2 sequence (looked up): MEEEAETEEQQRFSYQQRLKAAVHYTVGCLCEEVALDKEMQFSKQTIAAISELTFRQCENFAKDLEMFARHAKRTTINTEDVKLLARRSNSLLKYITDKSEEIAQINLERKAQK

T3: FANCM^661-800 (human, UniProt Q8IYD8 661-800)
T3 sequence (looked up): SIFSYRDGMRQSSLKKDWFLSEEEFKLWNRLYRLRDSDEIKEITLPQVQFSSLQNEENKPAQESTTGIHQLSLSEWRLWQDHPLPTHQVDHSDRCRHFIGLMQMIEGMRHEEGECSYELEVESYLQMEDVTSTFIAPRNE


Legend:
Experiment in all cases: crystal structure
[1] = target: T1, MHF1^1-107 (truncated MHF1 with the …)
[2] = target: T2, MHF1^1-114 (SeMet derivative)
[3] = target: T3, FANCM^661-800

Row | binding result [1] | binding result [2] | binding result [3] | Binder
1 | binds |  |  | MHF2 (natural protein, human) MEGAGAGSGFRKELVSRLLHLHFKDDKTKVSGDALQLMVELLKVFVVEAAVRGVRQAQAEDALRVDVDQLEKVLPQLLLDF
2 |  | binds | binds | MHF2 (SeMet derivative) (natural protein, human, selenomethionine (SeMet-derivative protein)) MEGAGAGSGFRKELVSRLLHLHFKDDKTKVSGDALQLMVELLKVFVVEAAVRGVRQAQAEDALRVDVDQLEKVLPQLLLDF
